Assay results reported in patent EP2365972B1, “MODULATORS OF ATP-BINDING CASSETTE TRANSPORTERS” (Vertex Pharmaceuticals Incorporated, priority 2008, dated 2010).
Where two headings read alike, the source gives them in different places.

Chains of the proteins cited; added tags and fusions are not shown. A line that says so, or that is headed by a name, gives the form on record, which may keep a tag or linker.
UniProt P13569, with tags, fused parts or gaps DEL508-508: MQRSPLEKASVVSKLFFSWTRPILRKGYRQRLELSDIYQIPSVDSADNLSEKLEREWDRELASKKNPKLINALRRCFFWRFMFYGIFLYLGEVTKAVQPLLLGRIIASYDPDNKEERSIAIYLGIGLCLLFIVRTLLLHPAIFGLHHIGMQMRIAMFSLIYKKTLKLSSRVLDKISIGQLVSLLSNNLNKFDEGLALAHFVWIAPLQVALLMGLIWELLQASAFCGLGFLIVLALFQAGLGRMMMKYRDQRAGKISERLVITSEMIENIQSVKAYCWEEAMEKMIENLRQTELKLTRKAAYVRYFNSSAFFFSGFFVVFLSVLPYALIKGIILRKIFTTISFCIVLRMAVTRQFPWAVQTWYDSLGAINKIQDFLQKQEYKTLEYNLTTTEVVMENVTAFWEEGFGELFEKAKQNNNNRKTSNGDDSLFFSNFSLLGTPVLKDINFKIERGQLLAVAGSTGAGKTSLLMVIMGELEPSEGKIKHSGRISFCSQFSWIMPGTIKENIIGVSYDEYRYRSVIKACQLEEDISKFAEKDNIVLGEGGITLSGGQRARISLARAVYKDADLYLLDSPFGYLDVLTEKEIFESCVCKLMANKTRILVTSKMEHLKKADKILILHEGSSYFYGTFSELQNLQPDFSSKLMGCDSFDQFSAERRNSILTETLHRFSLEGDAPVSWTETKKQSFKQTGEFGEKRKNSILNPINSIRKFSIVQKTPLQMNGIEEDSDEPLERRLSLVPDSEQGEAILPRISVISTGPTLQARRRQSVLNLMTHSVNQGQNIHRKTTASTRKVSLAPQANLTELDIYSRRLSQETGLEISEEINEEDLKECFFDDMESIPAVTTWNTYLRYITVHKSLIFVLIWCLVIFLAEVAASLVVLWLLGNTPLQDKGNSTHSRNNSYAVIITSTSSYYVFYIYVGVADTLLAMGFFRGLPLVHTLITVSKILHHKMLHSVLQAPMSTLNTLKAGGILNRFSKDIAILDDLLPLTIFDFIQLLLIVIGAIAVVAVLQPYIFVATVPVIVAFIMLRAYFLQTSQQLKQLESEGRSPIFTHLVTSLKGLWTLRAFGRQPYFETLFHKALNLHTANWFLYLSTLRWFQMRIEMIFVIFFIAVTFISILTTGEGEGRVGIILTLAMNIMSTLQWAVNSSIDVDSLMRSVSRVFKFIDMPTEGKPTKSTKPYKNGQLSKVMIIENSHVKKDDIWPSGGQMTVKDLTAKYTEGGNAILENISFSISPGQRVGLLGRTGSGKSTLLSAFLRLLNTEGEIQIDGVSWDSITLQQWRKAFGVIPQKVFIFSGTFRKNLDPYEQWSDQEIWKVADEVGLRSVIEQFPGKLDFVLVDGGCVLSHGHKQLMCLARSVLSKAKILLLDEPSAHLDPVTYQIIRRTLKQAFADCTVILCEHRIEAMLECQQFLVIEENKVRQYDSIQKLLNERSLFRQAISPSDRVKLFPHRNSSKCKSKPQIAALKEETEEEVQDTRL

Biological target: ΔF508-CFTR (Homo sapiens, UniProt P13569, DEL508-508)
Test: Membrane potential optical assay for ΔF508-CFTR correction (single-addition HTS format)
Settings: NIH 3T3 cells expressing ΔF508-CFTR, 16-24 hrs with test compound, 10 µM forskolin and genistein (20 µM); for EC50: read-out: Binned EC50
Description: Membrane potential optical methods for assaying ΔF508-CFTR modulation properties of compounds.
The assay utilizes fluorescent voltage sensing dyes to measure changes in membrane potential using a fluorescent plate reader (e.g., FLIPR III, Molecular Devices, Inc.) as a readout for increase in functional ΔF508-CFTR in NIH 3T3 cells. The driving force for the response is the creation of a chloride ion gradient in conjunction with channel activation by a single liquid addition step after the cells have previously been treated with compounds and subsequently loaded with a voltage sensing dye.
To identify small molecules that correct the trafficking defect associated with ΔF508-CFTR; a single-addition HTS assay format was developed. Assay Plates containing cells are incubated for ∼2-4 hours in tissue culture incubator at 37°C, 5%CO2, 90% humidity. Cells are then ready for compound exposure after adhering to the bottom of the assay plates.
The cells were incubated in serum-free medium for 16-24 hrs in tissue culture incubator at 37°C, 5%CO2, 90% humidity in the presence or absence (negative control) of test compound. The cells were subsequently rinsed 3X with Krebs Ringers solution and loaded with a voltage sensing redistribution dye. To activate ΔF508-CFTR, 10 µM forskolin and the CFTR potentiator, genistein (20 µM), were added along with Cl^--free medium to each well. The addition of Cl^--free medium promoted Cl^- efflux in response to ΔF508-CFTR activation and the resulting membrane depolarization was optically monitored using voltage sensor dyes.
Bath Solution #1: (in mM) NaCl 160, KCl 4.5, CaCl2 2, MgCl2 1, HEPES 10, pH 7.4 with NaOH.
Chloride-free bath solution: Chloride salts in Bath Solution #1 are substituted with gluconate salts.
NIH3T3 mouse fibroblasts stably expressing ΔF508-CFTR are used for optical measurements of membrane potential. The cells are maintained at 37 °C in 5% CO2 and 90 % humidity in Dulbecco's modified Eagle's medium supplemented with 2 mM glutamine, 10 % fetal bovine serum, 1 X NEAA, β-ME, 1 X pen/strep, and 25 mM HEPES in 175 cm^2 culture flasks. For all optical assays, the cells were seeded at […] in 384-well matrigel-coated plates and cultured for 2 hrs at 37 °C before culturing at 27 °C for 24 hrs. for the potentiator assay. For the correction assays, the cells are cultured at 27 °C or 37 °C with and without compounds for 16 - 24 hours.

Structure (SMILES)	Binned Max Efficacy (tested form: free compound)	EC50 (tested form: free compound)	Binned Max Efficacy	EC50
CC(C)(C)c1cc2c(C#N)c(NC(=O)C3(c4ccc5c(c4)OC(F)(F)O5)CC3)ccc2n1CCO [Compound 315, N-(2-tert-butyl-4-cyano-1-(2-hydroxyethyl)-1H-indol-5-yl)-1-(2,2-difluorobenzo[d][1,3]dioxol-5-yl)cyclopropanecarboxamide]	+++ ("+++" means > 100%)	< 2 µM		
CC(C)(CO)c1cc2cc(NC(=O)C3(c4ccc5c(c4)OC(F)(F)O5)CC3)c(F)cc2[nH]1			++ ("++" means between 25% and 100%)	2 to 5 µM
